Biological target: Aldo-keto reductase family 1 member B1 (Bos taurus, UniProt P16116)
Assay: Inhibition of bovine lens aldose reductase with DL-glyceraldehyde as substrate

`COc1ccc2c(C(=S)N(C)CC(=O)O)cccc2c1C(F)(F)F` [TOLRESTAT] was tested. Which IC50 did it give?
Its IC50 is 35 nM.

— ChEMBL document CHEMBL1122576, “N-[5-(trifluoromethyl)-6-methoxy-1-naphthalenyl]thioxomethyl]- N-methylglycine (Tolrestat), a potent, orally active aldose reductase inhibitor” (J Med Chem, 1984)
